By UniProt entry, the sequences of proteins in these tests, tags left out. Where a name states a change or a piece, a line headed by the entry shows the natural chain unless it says otherwise.
UniProt Q16873: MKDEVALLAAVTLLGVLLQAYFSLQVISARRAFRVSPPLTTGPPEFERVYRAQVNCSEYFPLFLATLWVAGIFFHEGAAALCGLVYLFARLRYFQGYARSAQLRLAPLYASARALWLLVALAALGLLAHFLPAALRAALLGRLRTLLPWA
UniProt P08588, whole entry: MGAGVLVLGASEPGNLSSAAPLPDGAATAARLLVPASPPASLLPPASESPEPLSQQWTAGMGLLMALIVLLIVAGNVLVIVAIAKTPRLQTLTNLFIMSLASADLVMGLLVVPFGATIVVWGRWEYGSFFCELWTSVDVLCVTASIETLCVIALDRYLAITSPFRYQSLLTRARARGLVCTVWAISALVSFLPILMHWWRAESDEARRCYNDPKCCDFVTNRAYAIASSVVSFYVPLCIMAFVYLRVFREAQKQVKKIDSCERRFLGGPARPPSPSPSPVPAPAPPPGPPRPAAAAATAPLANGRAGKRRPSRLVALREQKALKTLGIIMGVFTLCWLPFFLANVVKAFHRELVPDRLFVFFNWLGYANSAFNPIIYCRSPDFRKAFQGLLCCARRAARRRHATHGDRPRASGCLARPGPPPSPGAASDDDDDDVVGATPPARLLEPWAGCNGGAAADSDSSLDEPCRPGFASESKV
UniProt Q2M2I8: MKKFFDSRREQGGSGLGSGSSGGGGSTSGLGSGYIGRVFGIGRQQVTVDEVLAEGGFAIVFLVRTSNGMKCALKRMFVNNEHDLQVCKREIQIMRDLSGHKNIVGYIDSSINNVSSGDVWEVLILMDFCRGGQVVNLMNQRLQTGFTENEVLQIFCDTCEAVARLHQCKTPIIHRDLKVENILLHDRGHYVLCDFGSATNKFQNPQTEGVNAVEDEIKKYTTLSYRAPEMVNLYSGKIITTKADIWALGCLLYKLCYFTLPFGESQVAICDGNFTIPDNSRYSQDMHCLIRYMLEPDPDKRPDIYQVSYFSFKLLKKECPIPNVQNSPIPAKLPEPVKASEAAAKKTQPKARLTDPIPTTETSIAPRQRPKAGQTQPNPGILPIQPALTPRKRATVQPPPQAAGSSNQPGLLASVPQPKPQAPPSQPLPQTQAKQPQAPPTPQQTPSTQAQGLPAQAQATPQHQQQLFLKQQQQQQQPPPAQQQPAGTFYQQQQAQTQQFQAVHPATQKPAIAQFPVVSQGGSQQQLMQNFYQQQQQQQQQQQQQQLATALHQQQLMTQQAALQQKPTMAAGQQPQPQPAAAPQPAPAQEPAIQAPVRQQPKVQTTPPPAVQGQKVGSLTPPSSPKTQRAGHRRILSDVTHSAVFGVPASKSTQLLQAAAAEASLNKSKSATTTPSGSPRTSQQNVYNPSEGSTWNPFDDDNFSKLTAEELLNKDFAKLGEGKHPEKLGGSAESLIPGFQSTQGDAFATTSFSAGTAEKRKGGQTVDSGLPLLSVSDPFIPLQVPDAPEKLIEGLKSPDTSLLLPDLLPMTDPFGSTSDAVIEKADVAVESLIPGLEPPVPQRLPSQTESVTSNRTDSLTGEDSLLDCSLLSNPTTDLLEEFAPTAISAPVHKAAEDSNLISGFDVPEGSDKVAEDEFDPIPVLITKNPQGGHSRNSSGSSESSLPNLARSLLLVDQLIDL
UniProt P07332: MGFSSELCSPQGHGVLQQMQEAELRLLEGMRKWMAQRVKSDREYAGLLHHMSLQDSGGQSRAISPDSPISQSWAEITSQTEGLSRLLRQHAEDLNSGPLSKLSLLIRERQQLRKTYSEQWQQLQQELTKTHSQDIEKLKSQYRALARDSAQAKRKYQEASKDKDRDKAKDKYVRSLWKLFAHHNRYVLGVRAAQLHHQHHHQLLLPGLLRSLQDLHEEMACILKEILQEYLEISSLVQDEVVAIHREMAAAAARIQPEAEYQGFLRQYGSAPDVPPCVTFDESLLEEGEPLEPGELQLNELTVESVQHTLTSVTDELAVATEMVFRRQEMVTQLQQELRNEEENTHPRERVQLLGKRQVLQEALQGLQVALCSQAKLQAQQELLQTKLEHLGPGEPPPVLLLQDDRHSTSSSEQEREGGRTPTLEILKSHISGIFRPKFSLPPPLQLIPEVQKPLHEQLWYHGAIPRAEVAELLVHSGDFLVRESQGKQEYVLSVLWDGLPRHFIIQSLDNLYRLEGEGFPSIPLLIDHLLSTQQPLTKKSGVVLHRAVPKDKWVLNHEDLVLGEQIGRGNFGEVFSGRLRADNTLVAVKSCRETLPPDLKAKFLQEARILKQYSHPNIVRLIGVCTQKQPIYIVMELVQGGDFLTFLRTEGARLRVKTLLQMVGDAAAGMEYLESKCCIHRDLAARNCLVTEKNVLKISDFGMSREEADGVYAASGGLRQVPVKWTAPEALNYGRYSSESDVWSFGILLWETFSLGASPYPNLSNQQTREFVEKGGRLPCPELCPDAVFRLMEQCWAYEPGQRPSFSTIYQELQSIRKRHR
UniProt Q13043: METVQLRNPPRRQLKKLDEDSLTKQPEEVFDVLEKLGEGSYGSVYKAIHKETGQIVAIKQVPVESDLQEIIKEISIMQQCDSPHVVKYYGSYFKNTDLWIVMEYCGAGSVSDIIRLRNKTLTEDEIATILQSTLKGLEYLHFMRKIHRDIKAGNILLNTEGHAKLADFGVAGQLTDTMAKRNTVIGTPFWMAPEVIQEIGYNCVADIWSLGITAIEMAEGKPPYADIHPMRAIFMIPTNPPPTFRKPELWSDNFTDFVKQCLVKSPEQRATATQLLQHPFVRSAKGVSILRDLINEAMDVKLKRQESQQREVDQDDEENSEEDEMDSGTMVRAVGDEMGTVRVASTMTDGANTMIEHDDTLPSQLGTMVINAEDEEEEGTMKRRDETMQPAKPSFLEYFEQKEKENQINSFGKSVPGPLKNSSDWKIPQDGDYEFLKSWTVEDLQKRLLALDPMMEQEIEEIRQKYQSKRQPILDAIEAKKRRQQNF
UniProt Q9BZL6: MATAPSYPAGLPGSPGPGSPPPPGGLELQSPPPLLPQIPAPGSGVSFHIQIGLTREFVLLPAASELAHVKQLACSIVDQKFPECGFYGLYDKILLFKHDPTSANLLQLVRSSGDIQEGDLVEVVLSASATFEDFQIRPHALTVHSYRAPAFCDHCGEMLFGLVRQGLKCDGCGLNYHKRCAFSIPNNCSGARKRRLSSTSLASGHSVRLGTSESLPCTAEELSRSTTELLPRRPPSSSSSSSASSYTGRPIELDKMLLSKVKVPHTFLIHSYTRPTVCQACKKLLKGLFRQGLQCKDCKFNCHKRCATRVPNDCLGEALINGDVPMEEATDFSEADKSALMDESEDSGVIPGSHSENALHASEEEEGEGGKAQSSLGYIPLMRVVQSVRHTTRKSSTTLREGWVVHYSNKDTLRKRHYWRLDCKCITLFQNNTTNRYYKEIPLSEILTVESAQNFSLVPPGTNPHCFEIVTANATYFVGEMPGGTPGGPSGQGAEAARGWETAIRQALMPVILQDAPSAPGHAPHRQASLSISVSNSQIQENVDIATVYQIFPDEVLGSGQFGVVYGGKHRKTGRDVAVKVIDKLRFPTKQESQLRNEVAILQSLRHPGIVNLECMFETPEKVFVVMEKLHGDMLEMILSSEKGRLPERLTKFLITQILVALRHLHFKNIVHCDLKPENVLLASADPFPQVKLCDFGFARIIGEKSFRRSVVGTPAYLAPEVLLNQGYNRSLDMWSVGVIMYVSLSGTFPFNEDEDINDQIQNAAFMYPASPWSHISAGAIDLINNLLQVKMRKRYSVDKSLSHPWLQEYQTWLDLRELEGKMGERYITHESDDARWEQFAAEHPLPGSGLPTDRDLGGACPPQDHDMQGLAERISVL
UniProt Q13976: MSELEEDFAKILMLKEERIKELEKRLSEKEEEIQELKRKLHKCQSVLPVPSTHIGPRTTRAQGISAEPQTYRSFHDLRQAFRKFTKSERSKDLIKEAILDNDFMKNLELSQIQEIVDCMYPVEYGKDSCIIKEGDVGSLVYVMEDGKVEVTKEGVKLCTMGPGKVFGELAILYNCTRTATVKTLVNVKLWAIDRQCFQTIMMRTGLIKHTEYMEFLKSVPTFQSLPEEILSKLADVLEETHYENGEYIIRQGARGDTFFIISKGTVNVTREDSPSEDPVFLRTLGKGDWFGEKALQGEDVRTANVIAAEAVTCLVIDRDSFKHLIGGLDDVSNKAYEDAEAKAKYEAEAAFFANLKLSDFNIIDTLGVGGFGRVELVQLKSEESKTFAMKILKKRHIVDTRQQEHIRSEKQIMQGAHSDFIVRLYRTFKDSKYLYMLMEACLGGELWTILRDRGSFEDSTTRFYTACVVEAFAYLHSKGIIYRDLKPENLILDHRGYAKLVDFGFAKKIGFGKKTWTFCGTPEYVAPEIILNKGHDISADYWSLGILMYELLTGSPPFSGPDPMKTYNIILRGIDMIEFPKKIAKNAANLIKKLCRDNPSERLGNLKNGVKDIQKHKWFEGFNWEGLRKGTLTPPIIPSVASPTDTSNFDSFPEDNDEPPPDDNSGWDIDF
UniProt Q13464: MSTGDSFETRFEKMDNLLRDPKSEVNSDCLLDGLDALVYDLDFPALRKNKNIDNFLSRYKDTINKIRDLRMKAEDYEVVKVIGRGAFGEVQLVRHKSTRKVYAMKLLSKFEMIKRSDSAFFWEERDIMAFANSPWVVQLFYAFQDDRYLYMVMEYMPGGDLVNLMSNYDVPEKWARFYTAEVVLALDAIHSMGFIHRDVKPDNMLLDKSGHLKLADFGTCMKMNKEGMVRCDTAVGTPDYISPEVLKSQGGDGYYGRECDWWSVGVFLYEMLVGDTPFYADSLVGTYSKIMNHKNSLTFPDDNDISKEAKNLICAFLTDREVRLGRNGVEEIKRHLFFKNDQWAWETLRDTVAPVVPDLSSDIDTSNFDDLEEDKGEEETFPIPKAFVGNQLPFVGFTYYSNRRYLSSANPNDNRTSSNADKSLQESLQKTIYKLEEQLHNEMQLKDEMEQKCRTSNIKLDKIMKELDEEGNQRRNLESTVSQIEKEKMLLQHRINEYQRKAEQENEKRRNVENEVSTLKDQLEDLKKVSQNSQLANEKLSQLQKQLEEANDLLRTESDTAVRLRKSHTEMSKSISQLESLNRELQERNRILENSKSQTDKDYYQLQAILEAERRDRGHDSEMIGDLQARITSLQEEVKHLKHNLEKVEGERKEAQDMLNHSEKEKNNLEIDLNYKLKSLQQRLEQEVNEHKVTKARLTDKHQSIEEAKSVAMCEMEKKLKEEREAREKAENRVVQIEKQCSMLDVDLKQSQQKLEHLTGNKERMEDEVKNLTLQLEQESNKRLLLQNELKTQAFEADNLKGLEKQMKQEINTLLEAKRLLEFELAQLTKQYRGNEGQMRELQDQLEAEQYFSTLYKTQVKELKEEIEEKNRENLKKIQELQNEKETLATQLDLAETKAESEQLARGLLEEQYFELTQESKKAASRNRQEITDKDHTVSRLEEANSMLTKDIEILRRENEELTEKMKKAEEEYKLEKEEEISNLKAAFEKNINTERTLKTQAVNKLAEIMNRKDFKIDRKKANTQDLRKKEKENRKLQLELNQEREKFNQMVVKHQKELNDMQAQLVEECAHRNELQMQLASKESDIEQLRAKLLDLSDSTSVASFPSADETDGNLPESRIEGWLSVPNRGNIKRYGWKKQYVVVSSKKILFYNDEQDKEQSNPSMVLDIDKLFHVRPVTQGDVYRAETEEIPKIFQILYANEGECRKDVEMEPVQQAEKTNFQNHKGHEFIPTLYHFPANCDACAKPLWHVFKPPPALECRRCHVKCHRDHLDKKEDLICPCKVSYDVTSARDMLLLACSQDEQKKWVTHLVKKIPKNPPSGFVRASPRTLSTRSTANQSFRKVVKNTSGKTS

According to article PMC10009755, “Discovery and Characterization of BAY-805, a Potent and Selective Inhibitor of Ubiquitin-Specific Protease USP21” (Journal of Medicinal Chemistry, 2023):

Assays:
Lipoxygenase 15-LO = conditions: 10 µM
[1] = tested on: GABAA, Chloride Channel, TBOB; conditions: 10 µM
[2] = tested on: Purinergic P2Y, Non-Selective; conditions: 10 µM
U2OS = experiment: cells; conditions: Homo sapiens, 72 h, read-out: antiproliferative effect
USP4 = USP4 (Homo sapiens, UniProt Q13107); experiment: biochemical; conditions: read-out: Activity (% Control)
USP35 = USP35 (Homo sapiens, UniProt Q9P2H5); experiment: biochemical; conditions: read-out: Activity (% Control)
UCHL3 = UCHL3 (Homo sapiens, UniProt P15374); experiment: biochemical; conditions: read-out: Activity (% Control)
OTUD1 = OTUD1 (Homo sapiens, UniProt Q5VV17); experiment: biochemical; conditions: read-out: Activity (% Control)
[3] = target: Leukotriene LTC4 Synthase (Homo sapiens, UniProt Q16873); experiment: biochemical; conditions: read-out: % Inh.
Monoamine Oxidase MAO-B = Monoamine Oxidase MAO-B (Homo sapiens, UniProt P27338); experiment: biochemical; conditions: read-out: % Inh.
Adenosine A2A = Adenosine A2A (Homo sapiens, UniProt P29274); experiment: biochemical; conditions: read-out: % Inh.
Adrenergic β1 = Adrenergic β1 (Homo sapiens, UniProt P08588); experiment: biochemical; conditions: read-out: % Inh.
[4] = target: Growth Hormone Secretagogue (GHS, Ghrelin) (Homo sapiens, UniProt Q92847); experiment: biochemical; conditions: read-out: % Inh.
[5] = target: Transporter, Serotonin (5-Hydroxytryptamine) (SERT) (Homo sapiens, UniProt P31645); experiment: biochemical; conditions: read-out: % Inh.
AAK1(h) = AAK1(h) (Homo sapiens, UniProt Q2M2I8); experiment: biochemical
BrSK1(h) = BrSK1(h) (Homo sapiens, UniProt Q8TDC3); experiment: biochemical
CDK2/cyclinE(h) = CDK2/cyclinE(h) (Homo sapiens, UniProt P24941); experiment: biochemical
CDKL1(h) = CDKL1(h) (Homo sapiens, UniProt Q00532); experiment: biochemical
CHK2(h) = CHK2(h) (Homo sapiens, UniProt O96017); experiment: biochemical
CK1gamma3(h) = CK1gamma3(h) (Homo sapiens, UniProt Q9Y6M4); experiment: biochemical
DMPK(h) = DMPK(h) (Homo sapiens, UniProt Q09013); experiment: biochemical
EphB1(h) = EphB1(h) (Homo sapiens, UniProt P54762); experiment: biochemical
EphB3(h) = EphB3(h) (Homo sapiens, UniProt P54753); experiment: biochemical
Fes(h) = Fes(h) (Homo sapiens, UniProt P07332); experiment: biochemical
GRK3(h) = GRK3(h) (Homo sapiens, UniProt P35626); experiment: biochemical
Itk(h) = Itk(h) (Homo sapiens, UniProt Q08881); experiment: biochemical
LOK(h) = LOK(h) (Homo sapiens, UniProt O94804); experiment: biochemical
LRRK2(h) = LRRK2(h) (Homo sapiens, UniProt Q5S007); experiment: biochemical
MEKK2(h) = MEKK2(h) (Homo sapiens, UniProt Q9Y2U5); experiment: biochemical
Mer(h) = Mer(h) (Homo sapiens, UniProt Q12866); experiment: biochemical
MST1(h) = MST1(h) (Homo sapiens, UniProt Q13043); experiment: biochemical
PASK(h) = PASK(h) (Homo sapiens, UniProt Q96RG2); experiment: biochemical
PKCgamma(h) = PKCgamma(h) (Homo sapiens, UniProt P05129); experiment: biochemical
PKD2(h) = PKD2(h) (Homo sapiens, UniProt Q9BZL6); experiment: biochemical
PKG1alpha(h) = PKG1alpha(h) (Homo sapiens, UniProt Q13976); experiment: biochemical
PRK2(h) = PRK2(h) (Homo sapiens, UniProt Q16513); experiment: biochemical
PrKX(h) = PrKX(h) (Homo sapiens, UniProt P51817); experiment: biochemical
ROCK-I(h) = ROCK-I(h) (Homo sapiens, UniProt Q13464); experiment: biochemical
Rsk1(h) = Rsk1(h) (Homo sapiens, UniProt Q15418); experiment: biochemical
Rsk4(h) = Rsk4(h) (Homo sapiens, UniProt Q9UK32); experiment: biochemical
SGK(h) = SGK(h) (Homo sapiens, UniProt O00141); experiment: biochemical
ZAK(h) = ZAK(h) (Homo sapiens, UniProt Q9NYL2); experiment: biochemical

CC(C)C[C@H](NC(=O)C1(C(F)(F)F)CCCCC1)C(=O)Nc1nnc(Cc2ccc(C#N)cc2)s1 [Compound 22, CC(C)C[C@H](NC(=O)C1(CCCCC1)C(F)(F)F)C(=O)Nc2nnc(Cc3ccc(cc3)C#N)s2]
% Inh. (Lipoxygenase 15-LO): -3% | % Inh. [1]: 14% | % Inh. [2]: 22 | IC50 (U2OS): > 30 µM | remaining activity at 1 µM (USP4): 98% | remaining activity at 10 µM (USP4): 94% | remaining activity at 1 µM (USP35): 109% | remaining activity at 10 µM (USP35): 110% | remaining activity at 1 µM (UCHL3): 105% | remaining activity at 10 µM (UCHL3): 106% | remaining activity at 1 µM (OTUD1): 101% | remaining activity at 10 µM (OTUD1): 104% | inhibition at 10 µM [3]: 5% | inhibition at 10 µM (Monoamine Oxidase MAO-B): 5% | inhibition at 10 µM (Adenosine A2A): 3% | inhibition at 10 µM (Adrenergic β1): 4% | inhibition at 10 µM [4]: 8% | inhibition at 10 µM [5]: 11% | inhibition at 10 µM (AAK1(h)): 3.69% | inhibition at 10 µM (BrSK1(h)): 0.09% | inhibition at 10 µM (CDK2/cyclinE(h)): -6.08% | inhibition at 10 µM (CDKL1(h)): 13.4% | inhibition at 10 µM (CHK2(h)): -1.61% | inhibition at 10 µM (CK1gamma3(h)): 2.37% | inhibition at 10 µM (DMPK(h)): -0.97% | inhibition at 10 µM (EphB1(h)): 4.2% | inhibition at 10 µM (EphB3(h)): -2.88% | inhibition at 10 µM (Fes(h)): 1.46% | inhibition at 10 µM (GRK3(h)): 3.53% | inhibition at 10 µM (Itk(h)): -6.13% | inhibition at 10 µM (LOK(h)): -13.1% | inhibition at 10 µM (LRRK2(h)): -2.52% | inhibition at 10 µM (MEKK2(h)): -0.26% | inhibition at 10 µM (Mer(h)): -0.22% | inhibition at 10 µM (MST1(h)): -4.69% | inhibition at 10 µM (PASK(h)): 11.3% | inhibition at 10 µM (PKCgamma(h)): -2.02% | inhibition at 10 µM (PKD2(h)): 0.72% | inhibition at 10 µM (PKG1alpha(h)): 7.5% | inhibition at 10 µM (PRK2(h)): 9.51% | inhibition at 10 µM (PrKX(h)): 10.4% | inhibition at 10 µM (ROCK-I(h)): 15.2% | inhibition at 10 µM (Rsk1(h)): -1.98% | inhibition at 10 µM (Rsk4(h)): 4.56% | inhibition at 10 µM (SGK(h)): -7.07% | inhibition at 10 µM (ZAK(h)): -5.15%

CC(C)C[C@@H](NC(=O)C1(C(F)(F)F)CCCCC1)C(=O)Nc1nnc(Cc2ccc(C#N)cc2)s1 [Compound 21, N-[(1R)-1-[[5-[(4-Cyanophenyl)methyl]-1,3,4-thiadiazol-2-yl]carbamoyl]-3-methyl-butyl]-1-(trifluoromethyl)cyclohexanecarboxamide]
% Inh. (Lipoxygenase 15-LO): -3% | % Inh. [1]: 9% | % Inh. [2]: 5 | IC50 (U2OS): > 30 µM | remaining activity at 1 µM (USP4): 102% | remaining activity at 10 µM (USP4): 103% | remaining activity at 1 µM (USP35): 109% | remaining activity at 10 µM (USP35): 105% | remaining activity at 1 µM (UCHL3): 113% | remaining activity at 10 µM (UCHL3): 101% | remaining activity at 1 µM (OTUD1): 102% | remaining activity at 10 µM (OTUD1): 99% | inhibition at 10 µM [3]: 35% | inhibition at 10 µM (Monoamine Oxidase MAO-B): 7% | inhibition at 10 µM (Adenosine A2A): 2% | inhibition at 10 µM (Adrenergic β1): 3% | inhibition at 10 µM [4]: 20% | inhibition at 10 µM [5]: 13% | inhibition at 10 µM (AAK1(h)): 4.09% | inhibition at 10 µM (BrSK1(h)): -2.96% | inhibition at 10 µM (CDK2/cyclinE(h)): -7.88% | inhibition at 10 µM (CDKL1(h)): 10.1% | inhibition at 10 µM (CHK2(h)): 4.79% | inhibition at 10 µM (CK1gamma3(h)): 8% | inhibition at 10 µM (DMPK(h)): 4.5% | inhibition at 10 µM (EphB1(h)): -31.5% | inhibition at 10 µM (EphB3(h)): -3.42% | inhibition at 10 µM (Fes(h)): 8.18% | inhibition at 10 µM (GRK3(h)): 1.85% | inhibition at 10 µM (Itk(h)): -2.46% | inhibition at 10 µM (LOK(h)): -0.83% | inhibition at 10 µM (LRRK2(h)): -3.23% | inhibition at 10 µM (MEKK2(h)): 4.74% | inhibition at 10 µM (Mer(h)): 5.4% | inhibition at 10 µM (MST1(h)): -6.64% | inhibition at 10 µM (PASK(h)): 15.4% | inhibition at 10 µM (PKCgamma(h)): -0.1% | inhibition at 10 µM (PKD2(h)): 8.25% | inhibition at 10 µM (PKG1alpha(h)): 14.7% | inhibition at 10 µM (PRK2(h)): 4.47% | inhibition at 10 µM (PrKX(h)): 22.6% | inhibition at 10 µM (ROCK-I(h)): 3.01% | inhibition at 10 µM (Rsk1(h)): -5.69% | inhibition at 10 µM (Rsk4(h)): 9.03% | inhibition at 10 µM (SGK(h)): -0.2% | inhibition at 10 µM (ZAK(h)): -1.56%
